Only a part is listed here, and it is no random draw. Activity calls are given as the source filed them. Calls come from the whole dose curve; as a rule, active = well fitted inhibition curve with a large enough effect; inconclusive = small, poorly fitted or top-dose-only effect; inactive = flat fitted curve, though single readings scatter.
Experiment: qHTS for Inhibitors of Vif-A3F Interactions: qHTS; note: % of control where 0% means no effect; nearly all actives have a fitted effect of over 65% in size
Details: HeLa A3F-eYFP + Vif (tagged APOBEC3F with the HIV-1 protein that degrades it), YFP fluorescence increase; at 46.1 µM (top of the series)
Source text: The recent discovery and characterization of host restriction factors, which provide a potent defense to invading retroviruses, has provided new targets for antiviral drug development. APOBEC3G (A3G) and APOBEC3F (A3F) are potent cytidine deaminases that block HIV-1 replication; HIV-1 expresses the Vif protein, which counteracts A3G and A3F by binding to them and inducing their proteasomal degradation. The Vif-A3G and Vif-A3F interactions provide two potential targets for development of small molecules which can interfere with the ability of Vif to degrade A3G or A3F. […] To identify inhibitors that can interfere with Vif mediated degradation of A3G and A3F, we have developed Hela cell lines that stably express A3G or A3F tagged with eYFP at the C-terminal end (A3G-eYFP or A3F-eYFP, respectively) and Vif. In the absence of an inhibitor, Vif induces degradation of A3G-eYFP and A3F-eYFP, and the cells are not fluorescent. In the presence of an inhibitor, it is expected that Vif will be unable to degrade A3G-eYFP and/or A3F-eYFP, resulting in an increase in yellow fluorescence. In this assays Vif A3F was screened against the Molecular Library Small Molecule Repository (MLSMR). NIH Chemical Genomics Center [NCGC] NIH Molecular Libraries Probe Centers Network [MLPCN] MLPCN Grant: MH093245 Assay Submitter (PI): Vinay Pathak, National Cancer Institute
5 uL of 700 cells/well of A3F-YFP cells are dispensed into black, clear bottom plates. The plates are incubated overnight at 37 deg C. 23 nL of compounds are added by pintool. The plates are incubated overnight at 37 deg C and then read on the TTP Acumen (Ex 488/ Em 500-530).

SMILES	activity, negative = active
O=C(COc1ccccc1)OC1CN2CCC1CC2 (stereo unspecified)	inactive: -2.79%
O=C(Nc1ccncc1[N+](=O)[O-])c1ccc([N+](=O)[O-])cc1[N+](=O)[O-]	inactive: 7.48%
O=C(O)C(=O)c1ccc(N(CCCl)CCCl)cc1	inactive: 0.843%
COP1(=S)c2c(C)nn(CCC#N)c2N=C(c2ccc(F)cc2)N1C (stereo unspecified)	inactive: -3.74%
CCC(C)N(CC(C)C)C(=S)SC(NC(C)=O)C(Cl)(Cl)Cl (stereo unspecified)	inactive: 6.88%
CCOC(=O)c1ccc(NC(=O)C(C)(CCl)SC)cc1 (stereo unspecified)	inactive: 5.55%
O=C(OC1CN2CCC1CC2)c1cccc([N+](=O)[O-])c1 (stereo unspecified)	inactive: 5.74%
CCCCOc1ccc(C(=O)NCC2(N3CCCCC3)CCCCC2)cc1OC	inactive: -6.95%
Cc1cc(SC(NC(=O)c2ccccc2)C(Cl)(Cl)Cl)nc(C(C)C)n1 (stereo unspecified)	inactive: -14.7%
COP(=O)(OC)N1CC1c1ccccc1 (stereo unspecified)	inactive: -0.287%
CC1CCNP(=O)(N(CCCl)CCCl)O1 (stereo unspecified)	inactive: -11%
CCOC(=O)Nc1ccc([As](=O)(O)O)c(O)c1	inactive: -6.86%
O=C(O)C(O)c1ccc(N(CCCl)CCCl)cc1 (stereo unspecified)	inactive: -0.773%
O=[N+]([O-])c1ccc(Nc2ccc(Oc3ccc([N+](=O)[O-])cc3[N+](=O)[O-])cc2)c([N+](=O)[O-])c1	inactive: -5.49%
O=P(Nc1ccccn1)(c1cccc2ccccc12)c1cccc2ccccc12	inactive: 18.5%
Cc1cc(SC(NC=O)C(Cl)(Cl)Cl)ncn1 (stereo unspecified)	inactive: -26.2%
CCOC(=O)Nc1cccc([As](=O)(O)O)c1	inactive: 13.2%
Cc1ccc2nc3c(c(C)c2c1)CC(C(Cl)Cl)S3 (stereo unspecified)	inactive: 1.37%
Cc1ccc(OP(=O)(Nc2ccc([N+](=O)[O-])cn2)Oc2ccc(C)cc2)cc1	inactive: -2.3%
C[As](=O)(O)c1cccc(C(=O)O)c1	inactive: -5.41%
O=[As](O)(c1ccc(O)cc1)c1ccccc1O	inactive: -4.47%
COc1cc(C(=O)NCC2(N3CCOCC3)CCCCC2)ccc1OCC(C)C	inactive: -5.03%
O=[N+]([O-])c1ccc(-c2cc([N+](=O)[O-])c(O)c([N+](=O)[O-])c2)cc1	inactive: -11.1%
O=C(OC1CN2CCC1CC2)c1cccc2[nH]cnc12 (stereo unspecified)	inactive: 10.9%
CCN(CC)C(=S)SC(NC=O)C(Cl)(Cl)Cl (stereo unspecified)	inactive: -3.36%
CC(C)NC(=O)NP(=O)(Oc1ccccc1)Oc1ccccc1	inactive: -18.7%

SMILES	activity, negative = active
O=[N+]([O-])c1cc([N+](=O)[O-])c(-c2ccn[nH]2)s1	inactive: -5.23%
CC(C)c1ccc(OP(=O)(Nc2ccccn2)Oc2ccccc2F)cc1 (stereo unspecified)	inactive: 0.684%
COC(=O)C1(C)COP(=O)(N2CCCCCC2)OC1 (stereo unspecified)	inactive: -8.85%
ClCCSc1nnc(-c2cccnc2)o1	inactive: -2.39%
COc1ccc2nc(NP(=O)(c3ccccc3)c3ccccc3)sc2c1	inactive: -17.1%
COc1cc(I)ccc1[As](=O)(O)O	inactive: 4.14%
O=P1(N(CCCl)CCCl)Nc2ccccc2N1	inactive: 2.43%
O=P1(N(CCCl)CCCl)OCCCN1CCCl (stereo unspecified)	inactive: -10.2%
O=C(OC1CN2CCC1CC2)C12CC3CC(CC(C3)C1)C2 (stereo unspecified)	inactive: 0%
Cc1cc(=O)[nH]c(N[N+](=O)[O-])n1	inactive: 9.82%
Cc1c2c(nc3ccccc13)SC(C(Cl)Cl)C2 (stereo unspecified)	inactive: 2.68%
COc1ccc(N/C(=N/P(=O)(N2CCOCC2)N2CCOCC2)N2CCOCC2)cc1	inactive: 6.6%
O=[N+]([O-])c1cc(Oc2ccc([N+](=O)[O-])cc2C(F)(F)F)cc([N+](=O)[O-])c1	inactive: -7.18%
O=[As](O)(c1cccc(O)c1)c1cccc(O)c1	inactive: 14.2%
Cc1cccc(OCC(=O)OC2CN3CCC2CC3)c1 (stereo unspecified)	inactive: 3.01%
COc1cc(C(=O)NCC2(N3CCOCC3)CCCCC2)cc(Cl)c1OC(C)C	inactive: 11.3%
O=[As](O)(O)c1cccnc1	inactive: 0.515%
CS(=O)(=O)c1ccc(Cl)c(NC(=O)COC(=O)C(O)(c2ccccc2)c2ccccc2)c1	inactive: 4.46%
O=C(OC1CN2CCC1CC2)c1ccc(Cl)cc1 (stereo unspecified)	inactive: -1.37%
COc1cc(C2NCCC3(OCCO3)C2(C)C)cc(OC)c1OC (stereo unspecified)	inactive: -3.36%
CCOP(=O)(Nc1cccc2ccccc12)OCC	inactive: 0.483%
CCCOP(=S)(Nc1nc(N)cc(=O)[nH]1)OCCC	inactive: -3.33%
Nc1cccc2c([As](=O)(O)O)cccc12	inactive: 3.79%
Cc1ccc(NCCc2c([N+](=O)[O-])cc([N+](=O)[O-])cc2[N+](=O)[O-])cc1	inactive: -12.5%
Nc1ccccc1[As](=O)(O)c1ccccc1	inactive: 0.282%
O=C(O)COc1ccc([As](=O)(O)O)cc1[N+](=O)[O-]	inactive: -0.479%

SMILES	activity, negative = active
CCOP1(=S)c2c(C)nn(CCC#N)c2N=C(c2ccccc2F)N1C (stereo unspecified)	inactive: -12.4%
O=P(Nc1nccs1)(c1ccccc1)c1nc2ccccc2s1 (stereo unspecified)	inactive: -22.2%
O=P(Nc1nccs1)(Oc1ccccc1)Oc1ccccc1	inactive: 2.1%
CN(C)C(=O)c1cc([N+](=O)[O-])cc2c1-c1c(cc([N+](=O)[O-])cc1[N+](=O)[O-])C2=O	inactive: 8.18%
O=[N+]([O-])c1ccc2c(c1)nnn2O	inactive: 0.0364%
CN(C(=O)Cc1ccc(Cl)c(Cl)c1)[C@H]1CC[C@@]2(CCCO2)C[C@@H]1N1CCCC1	inactive: -0.398%
N#CCCN(C(=O)COC(=O)C(O)(c1ccccc1)c1ccccc1)c1ccc(F)cc1	inactive: 6.62%
CCOP1(=S)c2c(C)nn(CCC#N)c2N=C(c2ccc(F)cc2)N1C (stereo unspecified)	inactive: -0.147%
CN(C(=O)Cc1ccccc1)[C@@H]1CC[C@]2(CCCO2)C[C@H]1N1CCCC1	inactive: 8.61%
NC(=O)Nc1ccc([As](=O)(O)O)cc1	inactive: 6.6%
O=C(/C=C/c1ccccc1)OC1CN2CCC1CC2 (stereo unspecified)	inactive: 0%
CCCC1OP(=O)(Nc2ccccc2)OCC1CC (stereo unspecified)	inactive: -3.76%
CN(C)C1(CNC(=O)c2ccc(S(C)(=O)=O)cc2)CCCCC1	inactive: 1.52%
Cc1nn(-c2ccccc2)c2c1P(=O)(N1CCOCC1)N(C)C(c1ccccc1)=N2 (stereo unspecified)	inactive: -0.425%
CC1CCC(C(C)C)C(OP(=O)(Nc2ccccn2)c2ccccc2)C1 (stereo unspecified)	inactive: -2.12%
Cc1ccc(C(=O)OC2CN3CCC2CC3)cc1 (stereo unspecified)	inactive: -2.47%
O=P1(Nc2ccc(Br)cn2)COc2ccccc2OC1	inactive: 3.92%
NS(=O)(=O)c1cccc(NC(=O)COC(=O)C(O)(c2ccccc2)c2ccccc2)c1	inactive: 3.3%
O=[As](O)(c1cccs1)c1cccs1	inactive: 2.63%
Cc1ccc(OCC(=O)OC2CN3CCC2CC3)cc1 (stereo unspecified)	inactive: -1.31%
Nc1cccc([As](=O)(O)c2ccccc2)c1	inactive: 0.0331%
O=P1(Nc2ncccn2)COc2ccccc2OC1	inactive: 0.482%
O=P1(N(CCCl)CCCl)NCCC(C(F)(F)F)O1 (stereo unspecified)	inactive: -0.54%
Clc1n[nH]nc1-c1nn[nH][15n]1	inactive: -12.3%
CC(C)(C)C(=O)NC(Sc1ncccn1)C(Cl)(Cl)Cl (stereo unspecified)	inactive: -7.98%
CN(CCCl)Cc1cc(Cl)c(NC2=NCCN2)c(Cl)c1	inactive: -15.9%

SMILES	activity, negative = active
CCOP(=O)(Nc1ccc(C)cn1)OCC	inactive: -7.41%
O=P1(Nc2ccccn2)COc2ccccc2OC1	inactive: 9.01%
CCC1=CC2Cc3nc4ccc(Cl)cc4c(N)c3C(C1)C2 (stereo unspecified)	inactive: -1.45%
CCOP(=O)(NC(=NC(C)c1ccccc1)NC(C)c1ccccc1)OCC (stereo unspecified)	inactive: -10.1%
CC1(CBr)Cn2c(nc3ccccc3c2=O)S1 (stereo unspecified)	inactive: 0.413%
CC(C)/C=N\N=C(\N)N[N+](=O)[O-]	inactive: -2.24%
CN(C(=O)Cc1ccc(Cl)c(Cl)c1)[C@@H]1CCCC[C@H]1N1CCCC1	inactive: -2.6%
COc1ccccc1CNC(=O)COC(=O)C(O)(c1ccccc1)c1ccccc1	inactive: -6.56%
c1nnnn1CCn1cnnn1	inactive: 0.226%
CC(C)C(=O)NC(Sc1ccccc1)C(Cl)(Cl)Cl (stereo unspecified)	inactive: 3.84%
O=P(Nc1nccs1)(c1ccccc1)c1ccccc1	inactive: 1.58%
O=P(Nc1nc2ccccc2s1)(c1ccccc1)c1ccccc1	inactive: 0.516%
C[C@H]1OP(=O)(Oc2ccccc2)[C@H](O)[C@H](O)[C@H]1N=[N+]=[N-] (stereo partly specified)	inactive: 5.62%
COc1ccc(N)c([N+](=O)[O-])c1[N+](=O)[O-]	inactive: -0.29%
O=P(Nc1ccccn1)(c1ccc(Br)cc1)c1ccc(Br)cc1	inactive: -5.29%
CN(C)C1(CNC(=O)c2ccc(Cl)c(S(N)(=O)=O)c2)CCCCC1	inactive: 5.04%
Nc1ccc([As](=O)(O)c2ccc([N+](=O)[O-])cc2)cc1	inactive: -7.81%
C(Cc1nn[nH]n1)Cc1nn[nH]n1	inactive: 0.773%
O=C(OC1CN2CCC1CC2)c1cccc(Cl)c1 (stereo unspecified)	inactive: 0.612%
O=[N+]([O-])c1ccc(O)c(/C=N/Nc2ccc([N+](=O)[O-])cc2[N+](=O)[O-])c1	inactive: -3.38%
O=[N+]([O-])c1ncn(CCn2cnc([N+](=O)[O-])n2)n1	inactive: 1.75%
CC(=O)NC(SC(=S)N(C)C)C(Cl)(Cl)Cl (stereo unspecified)	inactive: -0.172%
O=[As](O)(c1ccccc1)c1ccc(O)cc1	inactive: 8.76%
